Test results from patent publication US20080287479A1, “INHIBITORS OF SERINE PALMITOYLTRANSFERASE” (Pfizer Inc, priority 2006, published 2008).

The chains behind the UniProt entries cited, without tags or fusion partners. Where a name states a change or a piece, a line headed by the entry shows the natural chain unless it says otherwise.
UniProt O15270: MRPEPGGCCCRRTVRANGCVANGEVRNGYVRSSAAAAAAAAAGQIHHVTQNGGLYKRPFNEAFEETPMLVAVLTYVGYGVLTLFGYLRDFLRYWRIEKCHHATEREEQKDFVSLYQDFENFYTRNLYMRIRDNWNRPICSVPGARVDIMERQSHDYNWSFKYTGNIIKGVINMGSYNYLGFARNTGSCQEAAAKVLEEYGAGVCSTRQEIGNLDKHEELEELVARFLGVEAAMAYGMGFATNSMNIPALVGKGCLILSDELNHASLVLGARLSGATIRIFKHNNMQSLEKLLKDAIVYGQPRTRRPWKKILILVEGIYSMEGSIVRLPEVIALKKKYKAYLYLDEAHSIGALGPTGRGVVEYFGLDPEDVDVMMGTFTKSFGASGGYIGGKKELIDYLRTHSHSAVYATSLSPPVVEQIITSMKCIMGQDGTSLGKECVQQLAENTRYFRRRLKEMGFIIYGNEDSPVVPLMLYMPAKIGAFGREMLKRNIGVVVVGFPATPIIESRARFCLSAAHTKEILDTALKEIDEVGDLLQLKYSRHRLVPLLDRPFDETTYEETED

Each molecule was assayed against Serine Palmitoyl Transferase (SPT); microsomes from HEK 293 cells stably transfected with human LCB2 subunit of SPT (Homo sapiens, UniProt O15270) (assay: SPT flashplate assay). Conditions: read-out: SPTISF IC50; microsomes of HEK 293 LCB2 cells, 3H-serine and palmitoyl CoA, phospholipid coated flashplate, 18-24 hours at room temperature.
Type: biochemical

Question: For `COC(=O)c1cc2[nH]c(=O)n(C3CCN(CC(=O)c4ccc(Cl)cc4)CC3)c2cc1F`, which IC50 is on record?
Answer: 14 nM

Question: How did the IC50 turn out when `CNC(=O)c1cc2[nH]c(=O)n(C3CCN(CC(=O)c4ccc(Cl)cc4)CC3)c2cc1F` was run?
Answer: 6.3 nM

Question: For `O=c1[nH]c(-c2ccc3c(c2)[nH]c(=O)n3C2CCN(CC(O)c3ccc(Cl)cc3)CC2)no1` (stereo not shown), which IC50 is on record?
Answer: 3 nM

Question: `O=C(CN1CCC(n2c(=O)[nH]c3cc(-c4nnn[nH]4)ccc32)CC1)c1ccc(Cl)cc1` was tested. Which IC50 did it give?
Answer: 0.89 nM

Question: How did the IC50 turn out when `O=C(O)c1cc2[nH]c(=O)n(C3CCN(CC(O)c4ccc(Cl)cc4)CC3)c2cc1F` (stereo not shown) was run?
Answer: 35 nM

Question: For `O=c1[nH]c2cc(-c3nnn[nH]3)ccc2n1C1CCN(CC(O)c2ccc(Cl)cc2)CC1` (stereo not shown), which IC50 is on record?
Answer: 3.1 nM

Question: For `CNC(=O)c1cc2[nH]c(=O)n(C3CCN(CC(F)c4ccc(Cl)cc4)CC3)c2cc1F` (stereo not shown), which IC50 is on record?
Answer: 37 nM

Question: For `CCc1ccc(C(O)CN2CCC(n3c(=O)[nH]c4cc(C(=O)NC)c(F)cc43)CC2)cc1` (stereo not shown), which IC50 is on record?
Answer: 17 nM

Question: For `CNC(=O)c1cc2[nH]c(=O)n(C3CCN(CC(O)c4ccc(Cl)cc4)CC3)c2cc1F` (stereo not shown), which IC50 is on record?
Answer: 5.4 nM

Question: Which IC50 does the source give for `COC(=O)c1cc2[nH]c(=O)n(C3CCN(CC(O)c4ccc(Cl)cc4)CC3)c2cc1F` (stereo not shown) here?
Answer: 12 nM
